# Assay results reported in ChEMBL document CHEMBL4011634 (J Med Chem, 2017).
# Target: T1, A disintegrin and metalloproteinase with thrombospondin motifs 4 (Homo sapiens, UniProt O75173)
# T1 sequence (O75173 whole entry): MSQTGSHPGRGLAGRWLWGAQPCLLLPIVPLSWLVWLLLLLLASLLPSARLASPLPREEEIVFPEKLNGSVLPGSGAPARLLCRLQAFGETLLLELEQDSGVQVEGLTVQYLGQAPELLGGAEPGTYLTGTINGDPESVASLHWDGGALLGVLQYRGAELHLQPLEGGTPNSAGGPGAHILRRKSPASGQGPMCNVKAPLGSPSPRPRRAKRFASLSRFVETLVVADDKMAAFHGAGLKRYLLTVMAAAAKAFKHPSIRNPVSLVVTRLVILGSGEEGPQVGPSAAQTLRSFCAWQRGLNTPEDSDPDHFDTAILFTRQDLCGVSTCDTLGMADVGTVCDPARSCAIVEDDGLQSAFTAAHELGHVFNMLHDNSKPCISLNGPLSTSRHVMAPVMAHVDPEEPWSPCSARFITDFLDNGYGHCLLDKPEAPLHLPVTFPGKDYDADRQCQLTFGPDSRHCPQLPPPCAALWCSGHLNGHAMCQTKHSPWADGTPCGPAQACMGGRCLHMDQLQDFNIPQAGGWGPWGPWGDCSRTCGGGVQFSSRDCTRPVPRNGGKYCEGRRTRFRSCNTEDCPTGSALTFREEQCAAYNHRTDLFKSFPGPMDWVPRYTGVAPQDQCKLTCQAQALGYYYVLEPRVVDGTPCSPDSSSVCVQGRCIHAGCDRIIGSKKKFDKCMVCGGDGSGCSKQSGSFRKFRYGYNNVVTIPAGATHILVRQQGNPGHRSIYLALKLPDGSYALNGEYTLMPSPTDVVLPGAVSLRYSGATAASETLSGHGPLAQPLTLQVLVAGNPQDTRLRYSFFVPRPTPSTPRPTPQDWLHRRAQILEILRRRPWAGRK
# Test: Inhibition of human ADAMTS4 using VQTVTWPDMELPLPRNITEGEARGSVILTVKPIFEVSPSPLKG peptide as substrate after 3 hrs by Alphascreen assay
smiles,measurement,value
C[C@@H](Cc1ccc(C(F)(F)F)cc1)C(=O)NC[C@@]1(C2CC2)NC(=O)NC1=O,IC50,12 nM
